Results as given in patent US6534655B1, “Indeno[1,2-C]pyrazole derivatives for inhibiting tyrosine kinase activity” (BASF Aktiengesellschaft, priority 1997, dated 2003).

Protein sequences, listed by entry. Tags and fused reporters are not part of them. Residues count along the entry.
UniProt P35968, 789-1354 limits assumed: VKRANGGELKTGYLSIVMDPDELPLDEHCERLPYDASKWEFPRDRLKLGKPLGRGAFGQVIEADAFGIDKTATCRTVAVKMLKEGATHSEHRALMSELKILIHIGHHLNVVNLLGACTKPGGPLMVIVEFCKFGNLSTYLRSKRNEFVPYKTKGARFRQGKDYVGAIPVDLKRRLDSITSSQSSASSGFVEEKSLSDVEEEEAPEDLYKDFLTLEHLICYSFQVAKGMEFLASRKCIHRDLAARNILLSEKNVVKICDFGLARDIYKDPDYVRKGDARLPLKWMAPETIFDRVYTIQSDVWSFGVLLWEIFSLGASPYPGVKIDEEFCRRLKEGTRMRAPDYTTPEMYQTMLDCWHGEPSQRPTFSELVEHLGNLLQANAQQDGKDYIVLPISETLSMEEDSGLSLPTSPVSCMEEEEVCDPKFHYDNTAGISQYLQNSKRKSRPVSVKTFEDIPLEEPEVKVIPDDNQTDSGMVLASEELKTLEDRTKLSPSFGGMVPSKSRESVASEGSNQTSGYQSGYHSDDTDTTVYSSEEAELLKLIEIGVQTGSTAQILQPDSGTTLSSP

Target: KDR tyrosine kinase (Homo sapiens, UniProt P35968)
Assay: KDR in vitro ELISA (tyrosine kinase activity)
Settings: read-out: KDR ELISA IC50; ATP 5 μM, 5% DMSO, poly(Glu,Tyr) 4:1 substrate
Description: The coding sequence for the KDR intra-cellular domain (aa789-1354) was generated through PCR using cDNAs isolated from HUVEC cells. A poly-His6 sequence was introduced at the N-terminus of this protein as well. This fragment was cloned into transfection vector pVL1393 at the Xba 1 and Not 1 site. Recombinant baculovirus (BV) was generated through co-transfection using the BaculoGold Transfection reagent (PharMingen). Recombinant BV was plaque purified and verified through Western analysis. For protein production, SF-9 cells were grown in SF-900-II medium at 2×10^6/ml, and were infected at 0.5 plaque forming units per cell (MOI). Cells were harvested at 48 hours post infection.
SF-9 cells expressing (His)6KDR(aa789-1354) were lysed by adding 50 ml of Triton X-100 lysis buffer (20 mM Tris, pH 8.0, 137 mM NaCl, 10% glycerol, 1% Triton X-100, 1 mM PMSF, 10 μg/ml aprotinin, 1 μg/ml leupeptin) to the cell pellet from 1 L of cell culture. The lysate was centrifuged at 19,000 rpm in a Sorval SS-34 rotor for 30 min at 4° C. […] Column fractions were analyzed using SDS-PAGE and an ELISA assay (below) which measures kinase activity. […]
Stop with 1M Phosphoric acid. Shake on plate reader.
Read OD immediately at 450 nm
Optimal incubation times and enzyme reaction conditions vary slightly with enzyme preparations and are determined empirically for each lot.

Compound | IC50
Cc1ccc(-c2n[nH]c3c2C(=O)c2ccccc2-3)cc1 | 2600 nM
COc1ccc(-c2n[nH]c3c2C(=O)c2ccccc2-3)cc1 | 1500 nM
